This note sets out measurements from US20150064172A1, “METHODS OF TREATING A DISEASE OR DISORDER ASSOCIATED WITH BRUTON'S TYROSINE KINASE” (Celgene Avilomics Research, Inc., priority 2013, published 2015).

The chains behind the UniProt entries cited, without tags or fusion partners. Where a name states a change or a piece, a line headed by the entry shows the natural chain unless it says otherwise.
UniProt Q06187: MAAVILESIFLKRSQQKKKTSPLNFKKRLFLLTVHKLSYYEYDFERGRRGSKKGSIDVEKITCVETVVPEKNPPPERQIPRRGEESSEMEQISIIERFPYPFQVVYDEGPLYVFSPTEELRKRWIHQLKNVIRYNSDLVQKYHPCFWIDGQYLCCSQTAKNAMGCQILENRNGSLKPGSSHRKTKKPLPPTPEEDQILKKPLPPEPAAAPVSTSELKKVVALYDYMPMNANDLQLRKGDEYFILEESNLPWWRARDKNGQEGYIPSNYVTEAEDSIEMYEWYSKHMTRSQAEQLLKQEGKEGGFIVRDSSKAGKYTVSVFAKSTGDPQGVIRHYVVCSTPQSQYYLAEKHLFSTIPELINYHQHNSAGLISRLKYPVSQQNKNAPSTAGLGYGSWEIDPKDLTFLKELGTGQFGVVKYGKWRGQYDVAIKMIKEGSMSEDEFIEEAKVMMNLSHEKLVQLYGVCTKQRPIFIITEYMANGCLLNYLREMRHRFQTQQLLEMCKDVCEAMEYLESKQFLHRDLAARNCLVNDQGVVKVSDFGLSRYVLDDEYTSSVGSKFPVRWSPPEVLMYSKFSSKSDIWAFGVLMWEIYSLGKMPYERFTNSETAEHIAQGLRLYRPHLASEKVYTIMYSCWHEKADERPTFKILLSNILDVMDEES

Structures are written as SMILES. Some results are limits rather than exact numbers.

For test [1], the target named is T1, BTK (Homo sapiens, UniProt Q06187). The test is described as follows: biochemical.
The target in test [2] is T1, BTK. The test is described as follows: Phosphorylation of Btk (Tyr223) and PLCγ2 (Tyr1217) in Ramos cells. The class given is cell-based.

Usually IC50 stands for the point on the concentration scale where inhibition reaches its midpoint. A high value points to weaker potency. The EC50 is the midpoint of the concentration-response curve. High values mean a need for much substance, low ones an effect from little substance.

Turning to `C=CC(=O)Nc1cccc(Nc2nc(Nc3ccc(OCCOC)cc3)ncc2F)c1.O=S(=O)(O)c1ccccc1` [Compound 1 besylate, N-(3-(5-fluoro-2-(4-(2-methoxyethoxyl)phenylamino)pyrimidin-4-ylamino)phenyl)acrylamide benzenesulfonic acid salt], the IC50 at BTK [1] is < 0.5 nM.

`C=CC(=O)Nc1cccc(Nc2nc(Nc3ccc(OCCOC)cc3)ncc2F)c1` [Compound 1, N-(3-(5-fluoro-2-(4-(2-methoxyethoxyl)phenylamino)pyrimidin-4-ylamino)phenyl)acrylamide] showed an EC50 on BTK [2] of 1 to 10 nM.
